Source: patent publication EP0147194B1 (Hosobuchi, Yoshio, priority 1983, dated 1989)

Test system: acute focal cerebral ischemia
Conditions: cats, MCA occlusion; intraperitoneal injection 6 hours after occlusion, then osmotic pump; observed up to 7 days; saline group all died in less than 24 hours

CO[C@]12CC[C@@]3(C[C@@H]1C(C)(C)O)[C@H]1Cc4ccc(O)c5c4[C@@]3(CCN1CC1CC1)[C@H]2O5
prolonging survival (mortality as a function of time following the cerebral artery occlusions): little effect in prolonging survival
